The entries are a selection whose mix differs from that of the whole data set. The source made the active and inactive calls.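 How the source made its calls: active means inhibition above the campaign's mean inhibition across all tested compounds plus 3 SD (cut at about 9.5% in these data); inactive means the rest.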
Each compound was assayed against Serine/threonine-protein phosphatase 5 (Homo sapiens) (UniProt P53041) (assay: inhibition of human PP5 catalytic activity – biochemical, fluorescence, primary screen (AID 1987;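 further: 0% = DMSO only and 100% = 100 µM cantharidin control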)). Settings: purified PP5c, OMFP substrate fluorescence; at 6.7 µM; hits give high values.

By UniProt entry, the sequences of proteins in these tests, tags left out. Where a name states a change or a piece, a line headed by the entry shows the natural chain unless it says otherwise.
UniProt P53041: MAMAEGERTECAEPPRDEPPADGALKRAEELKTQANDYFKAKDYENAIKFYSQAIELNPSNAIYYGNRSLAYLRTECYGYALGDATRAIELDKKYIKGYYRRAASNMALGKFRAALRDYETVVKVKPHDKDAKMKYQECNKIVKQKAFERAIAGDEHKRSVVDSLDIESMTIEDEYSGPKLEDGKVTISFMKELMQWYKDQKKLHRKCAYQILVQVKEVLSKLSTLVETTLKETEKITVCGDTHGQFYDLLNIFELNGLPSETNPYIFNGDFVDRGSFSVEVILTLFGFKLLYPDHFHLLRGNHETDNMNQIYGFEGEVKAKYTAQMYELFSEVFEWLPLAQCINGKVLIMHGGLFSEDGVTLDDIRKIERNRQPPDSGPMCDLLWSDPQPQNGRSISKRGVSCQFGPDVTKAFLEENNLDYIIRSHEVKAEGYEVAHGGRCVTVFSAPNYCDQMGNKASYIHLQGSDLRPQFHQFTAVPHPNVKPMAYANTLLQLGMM

Compound | inhibition
CCC1=CC2Cc3nc4ccc(Cl)cc4c(N)c3C(C1)C2 (stereo not drawn) | inactive: -0.66%
CCOP(=O)(Nc1ccc(C)cn1)OCC | inactive: 1.33%
CN(CCCl)Cc1cc(Cl)c(NC2=NCCN2)c(Cl)c1 | inactive: 0.78%
CC(C)/C=N\N=C(\N)N[N+](=O)[O-] | inactive: 1.7%
CN(C(=O)Cc1ccc(Cl)c(Cl)c1)[C@@H]1CCCC[C@H]1N1CCCC1 | inactive: 1.26%
CC1(CBr)Cn2c(nc3ccccc3c2=O)S1 (stereo not drawn) | inactive: 2.43%
O=[As](O)(c1ccccc1Br)c1ccccc1Br | inactive: 2.2%
COc1ccccc1CNC(=O)COC(=O)C(O)(c1ccccc1)c1ccccc1 | inactive: 2.07%
CN(C)C1(CNC(=O)c2ccc(S(C)(=O)=O)cc2)CCCCC1 | inactive: 0.25%
O=C(/C=C/c1ccccc1)OC1CN2CCC1CC2 (stereo not drawn) | inactive: 2.66%
CC1CCC(C(C)C)C(OP(=O)(Nc2ccccn2)c2ccccc2)C1 (stereo not drawn) | inactive: 3.17%
Cc1ccc(C(=O)OC2CN3CCC2CC3)cc1 (stereo not drawn) | inactive: 0.82%
Cc1nn(-c2ccccc2)c2c1P(=O)(N1CCOCC1)N(C)C(c1ccccc1)=N2 (stereo not drawn) | inactive: 3.19%
Nc1cccc([As](=O)(O)c2ccccc2)c1 | inactive: -2.55%
O=[As](O)(c1cccs1)c1cccs1 | inactive: 0.76%
Cc1ccc(OCC(=O)OC2CN3CCC2CC3)cc1 (stereo not drawn) | inactive: -1.67%
O=P1(Nc2ccc(Br)cn2)COc2ccccc2OC1 | inactive: -1.15%
NS(=O)(=O)c1cccc(NC(=O)COC(=O)C(O)(c2ccccc2)c2ccccc2)c1 | inactive: 1.19%
O=P1(Nc2ncccn2)COc2ccccc2OC1 | inactive: 0.11%
Nc1ccccc1[As](=O)(O)c1ccccc1 | inactive: -1.79%
O=C(O)COc1ccc([As](=O)(O)O)cc1[N+](=O)[O-] | inactive: 2.82%
O=P(Nc1nccs1)(Oc1ccccc1)Oc1ccccc1 | inactive: 4.54%

Compound | inhibition
O=P(Nc1nccs1)(c1ccccc1)c1nc2ccccc2s1 (stereo not drawn) | inactive: 0.91%
CCOP1(=S)c2c(C)nn(CCC#N)c2N=C(c2ccccc2F)N1C (stereo not drawn) | inactive: 0.4%
CS(=O)(=O)c1cc([N+](=O)[O-])c2no[n+]([O-])c2c1 | inactive: 0.9%
CCOP1(=S)c2c(C)nn(CCC#N)c2N=C(c2ccc(F)cc2)N1C (stereo not drawn) | inactive: 1.12%
CN(C(=O)Cc1ccccc1)[C@@H]1CC[C@]2(CCCO2)C[C@H]1N1CCCC1 | inactive: 1.55%
N#CCCN(C(=O)COC(=O)C(O)(c1ccccc1)c1ccccc1)c1ccc(F)cc1 | inactive: 1.89%
CN(C(=O)Cc1ccc(Cl)c(Cl)c1)[C@H]1CC[C@@]2(CCCO2)C[C@@H]1N1CCCC1 | inactive: -1.71%
O=[N+]([O-])c1ccc2c(c1)nnn2O | inactive: -1.15%
CN(C)C(=O)c1cc([N+](=O)[O-])cc2c1-c1c(cc([N+](=O)[O-])cc1[N+](=O)[O-])C2=O | inactive: 4.57%
NC(=O)Nc1ccc([As](=O)(O)O)cc1 | inactive: -1.48%
Cc1cccc(OCC(=O)OC2CN3CCC2CC3)c1 (stereo not drawn) | inactive: 1.62%
O=[As](O)(c1cccc(O)c1)c1cccc(O)c1 | inactive: -2.16%
O=C(OC1CN2CCC1CC2)c1ccc(Cl)cc1 (stereo not drawn) | inactive: -0.85%
CS(=O)(=O)c1ccc(Cl)c(NC(=O)COC(=O)C(O)(c2ccccc2)c2ccccc2)c1 | inactive: 2.07%
O=[As](O)(O)c1cccnc1 | inactive: -0.32%
COc1cc(C(=O)NCC2(N3CCOCC3)CCCCC2)cc(Cl)c1OC(C)C | inactive: 3.72%
CCOP(=O)(Nc1cccc2ccccc12)OCC | inactive: 0.48%
COc1cc(C2NCCC3(OCCO3)C2(C)C)cc(OC)c1OC (stereo not drawn) | inactive: 1.03%
Nc1cccc2c([As](=O)(O)O)cccc12 | inactive: 1.15%
Cc1ccc(NCCc2c([N+](=O)[O-])cc([N+](=O)[O-])cc2[N+](=O)[O-])cc1 | inactive: 0.15%
CCCOP(=S)(Nc1nc(N)cc(=O)[nH]1)OCCC | inactive: 3.14%
